Values of other authors in US11207276B2, “Multiparticulate L-menthol formulations and related methods” (Société des Produits Nestlé S.A., priority 2011, dated 2021).

Conditions: L-menthol from delayed release single-unit dosage forms

SMILES: CC(C)[C@@H]1CC[C@@H](C)C[C@H]1O [L-menthol]
- systemic exposure of L-menthol limited to: approximately 4 hours
